The target in the test is OGG1 (Homo sapiens (Human), UniProt O15527). Kind of test: In vitro OGG1 activity assay. The test is classed as biochemical. The conditions noted are these: 800 pM OGG1 enzyme, 2 nM human APEX1, 10 nM 8-oxoA:C substrate. The method, then: Method 1: In Vitro OGG1 Activity Assay OGG1 activity is assayed by measuring the increase in fluorescence from a duplex oligonucleotide containing an OGG1 substrate and a fluorophore in close proximity that are quenched by a quencher on the complementary strand. […] OGG1 activity releases the substrate base from DNA by cleaving the N-glycosidic bond between base and deoxyribose. The resulting apurinic site is cleaved by an excessive amount APEX1 activity which cause the duplex to melt, which in turn cause the fluorophore to become unquenched. Compounds to be tested are dissolved in DMSO and nano-dispensed directly into black 384-well plates, followed by transfer of enzyme and substrate solutions. […] The fluorescent signal is recorded in a plate reader equipped with suitable filters to register fluorescein fluorescence.

The chains behind the UniProt entries cited, without tags or fusion partners.
UniProt O15527, whole entry: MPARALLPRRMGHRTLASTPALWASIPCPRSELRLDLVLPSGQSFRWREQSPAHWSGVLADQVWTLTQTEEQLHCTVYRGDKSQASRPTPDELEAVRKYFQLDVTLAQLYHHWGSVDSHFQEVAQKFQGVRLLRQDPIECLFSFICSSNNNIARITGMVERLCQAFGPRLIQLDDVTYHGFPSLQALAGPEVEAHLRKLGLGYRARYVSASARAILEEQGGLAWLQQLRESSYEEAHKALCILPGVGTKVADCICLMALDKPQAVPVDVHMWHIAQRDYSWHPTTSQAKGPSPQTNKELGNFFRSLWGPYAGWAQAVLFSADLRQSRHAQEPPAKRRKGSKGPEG

Molecules are shown by their SMILES.

Results on two compounds are retold here after patent US11970474B2, “Substituted benzodiazoles and use thereof in therapy” (THOMAS HELLEDAYS STIFTELSE FÖR MEDICINSK FORSKNING, priority 2018, dated 2024).

As a reminder, the IC50 is the concentration needed to halve the response being measured.

`O=C(Nc1ccc(I)cc1)N1CCC(n2c(=O)[nH]c3cc(Cl)ccc32)CC1` [Example 2, 4-(5-Chloro-2-oxo-2,3-dihydro-1H-1,3-benzodiazol-1-yl)-N-(4-iodophenyl) piperidine-1-carboxamide] had an IC50 of 1690 nM. `O=C(Nc1ccc(Cl)c(Cl)c1)N1CCC(n2c(=O)[nH]c3cc(Cl)ccc32)CC1` [Example 3, 4-(5-Chloro-2-oxo-2,3-dihydro-1H-1,3-benzodiazol-1-yl)-N-(3,4-dichlorophenyl)piperidine-1-carboxamide] yielded an IC50 of 1290 nM.
